Tests used:
[1] = molecular target: Nucleolysin TIA-1 (endogenous mouse TIA1) (mouse) (UniProt P52912); assay: TIA1 IP-MS, WT1 cortex
[2] = molecular target: Nucleolysin TIA-1 (endogenous mouse TIA1) (mouse) (UniProt P52912); assay: TIA1 IP-MS, WT2 cortex
[3] = molecular target: Nucleolysin TIA-1 (endogenous mouse TIA1) (mouse) (UniProt P52912); assay: TIA1 IP-MS, WT3 cortex
[4] = molecular target: Nucleolysin TIA-1 (endogenous mouse TIA1) (mouse) (UniProt P52912); assay: TIA1 IP-MS, tau KO 1 cortex
[5] = molecular target: Nucleolysin TIA-1 (endogenous mouse TIA1) (mouse) (UniProt P52912); assay: TIA1 IP-MS, tau KO 2 cortex
[6] = molecular target: Nucleolysin TIA-1 (endogenous mouse TIA1) (mouse) (UniProt P52912); assay: TIA1 IP-MS, tau KO 3 cortex

| Substance | total ion current (normalized to TIA1 = 1000) [1] | total ion current (normalized to TIA1 = 1000) [2] | total ion current (normalized to TIA1 = 1000) [3] | total ion current (normalized to TIA1 = 1000) [4] | total ion current (normalized to TIA1 = 1000) [5] | total ion current (normalized to TIA1 = 1000) [6] |
| --- | --- | --- | --- | --- | --- | --- |
| GTP-binding nuclear protein Ran (from UniProt P62827 2-216) | 0 | 365 | 221 | 0 | 161 | 0 |
| Small nuclear ribonucleoprotein-associated protein B (from UniProt P27048 1-231) | 19 | 554 | 108 | 23.4 | 85.1 | 0 |
| Isoform 2 of cAMP-dependent protein kinase catalytic subunit alpha (from UniProt P05132 2-343) | 0 | 275 | 41.4 | 0 | 144 | 0 |
| Ribosomal protein (Rpl10a) (from UniProt P53026 2-217) | 3.24 | 0 | 0 | 8.16 | 0 | 0 |
| 60S ribosomal protein L13a (from UniProt P19253 2-203) | 10.3 | 0 | 0 | 20.1 | 0 | 0 |
| 60S ribosomal protein L7 (from UniProt P14148 1-270) | 35.8 | 46.9 | 110 | 0 | 0 | 0 |
| Polyubiquitin-B (from UniProt P0CG49 1-76) | 0 | 283 | 368 | 0 | 180 | 0 |
| Isoform 1 of Voltage-dependent L-type calcium channel subunit beta-4 (from UniProt Q8R0S4 1-486) | 0 | 172 | 0 | 0 | 31.1 | 0 |
| 40S ribosomal protein S3 (from UniProt P62908 2-243) | 4.38 | 0 | 0 | 67.1 | 0 | 0 |
| Fascin (from UniProt Q61553 2-493) | 0 | 138 | 0 | 0 | 66.6 | 0 |
| 60S ribosomal protein L6 (from UniProt P47911 1-296) | 12.7 | 0 | 0 | 0 | 0 | 0 |
| 60S ribosomal protein L13 (from UniProt P47963 1-211) | 4.44 | 71.6 | 0 | 19.8 | 0 | 525 |
| Isoform 2 of cAMP-dependent protein kinase catalytic subunit beta (from UniProt P68181 1-338) | 0 | 385 | 41.4 | 0 | 189 | 0 |
| Glucose-6-phosphate isomerase (from UniProt P06745 2-558) | 0 | 132 | 34.9 | 0 | 162 | 0 |
| 40S ribosomal protein S4, X isoform (from UniProt P62702 2-263) | 5.82 | 152 | 0 | 2.94 | 0 | 0 |
